Source: US20230255972A1, “PYRIMIDINE COMPOUND-CONTAINING COMBINATION TO BE USED IN TUMOR TREATMENT” (TAIHO PHARMACEUTICAL CO., LTD., priority 2020, published 2023)
Where two headings read alike, the source gives them in different places.

Tested on: Human stomach cancer-derived tumor cells 4-1ST
Details: for BWC (%, Mean ± SE) / T/C (%) / TV (mm^3, mean ± SE): Day 15; for BWC (%, Mean ± SE) / T/C (%) / TV (mm^3, mean ± SE) / Number of Deaths: Days 1, 8, iv

For “trastuzumab: Trastuzumab (Herceptin, Roche), anti-Her2 antibody [reference compound]”, the “BWC (%, Mean ± SE)” value (Trastuzumab 20 mg/kg/day) was 10.82 ± 0.90%, the “T/C (%)” value (Trastuzumab 20 mg/kg/day) was 79.4% and the “TV (mm^3, mean ± SE)” value (Trastuzumab 20 mg/kg/day) was 1621.4 ± 273.5 mm^3. The “BWC (%, Mean ± SE)” value (Trastuzumab 40 mg/kg/day) was 9.22 ± 1.00%, the “T/C (%)” value (Trastuzumab 40 mg/kg/day) was 74.4% and the “TV (mm^3, mean ± SE)” value (Trastuzumab 40 mg/kg/day) was 1518.8 ± 204.2 mm^3. For the same substance, the “Number of Deaths” value (Trastuzumab 20 mg/kg/day) was 0, the “Number of Deaths” value (Trastuzumab 40 mg/kg/day) was 0 and the “TV on Day 15 versus control group (Dunnett's test)” value (trastuzumab iv Days 1 and 8 (except for the 20 mg/kg/day group), Example 11 po Days 1-14) was “significantly lower TV”.
